Source: ChEMBL document CHEMBL3112476, “Inhibition of IκB kinase-β and IκB kinase-α by heterocyclic adamantyl arotinoids” (Bioorg Med Chem, 2014)

Sequences of proteins named here, by UniProt entry; tags and fusion partners are left off.
UniProt P10276, whole entry: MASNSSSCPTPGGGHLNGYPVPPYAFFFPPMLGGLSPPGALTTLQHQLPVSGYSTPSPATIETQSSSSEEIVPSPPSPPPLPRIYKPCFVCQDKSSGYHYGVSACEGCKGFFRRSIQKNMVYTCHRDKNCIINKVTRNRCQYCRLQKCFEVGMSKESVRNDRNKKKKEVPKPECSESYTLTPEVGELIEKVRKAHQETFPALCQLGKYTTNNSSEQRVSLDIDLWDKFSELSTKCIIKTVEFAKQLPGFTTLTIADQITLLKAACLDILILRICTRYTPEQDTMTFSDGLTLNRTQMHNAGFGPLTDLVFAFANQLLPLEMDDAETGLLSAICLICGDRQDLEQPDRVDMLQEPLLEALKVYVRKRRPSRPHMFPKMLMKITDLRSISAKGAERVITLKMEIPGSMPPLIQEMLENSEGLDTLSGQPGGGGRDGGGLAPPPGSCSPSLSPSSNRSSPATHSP

Molecular target: Retinoic acid receptor alpha (Homo sapiens, UniProt P10276)
Assay: Agonist activity at Gal4-fused RARalpha (unknown origin) transfected in HEK293 cells assessed as induction of transcriptional activity at 4 uM after 6 hrs by luciferase/beta-galactosidase reporter gene assay relative to control
Assay type: cell-based
How it was run: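 Gal4-RARα or Gal4-RXRα (10 ng) plus 2 ng β-galactosidase vector, calcium phosphate transfection into HEK-293 cells carrying a 5×UAS luciferase reporter. After 16 h, cells were washed and given 5% charcoal-treated FBS medium, then rested 2 h. Stimulation was with 4 µM compound or 0.1% DMSO; controls were 1 µM atRA (RARα) or 1 µM CD3254 (RXRα). Harvest was at 6 h (RARα) or 24 h (RXRα). Luciferase/β-gal ratio was expressed as fold over unstimulated cells. Data: 2 experiments, triplicate.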

fold change (FC)	Compound
4.6	O=C(O)c1ccc(-c2cnc(-c3ccc(O)c(C45CC6CC(CC(C6)C4)C5)c3)s2)cc1
1	COc1nc(/C=C/C(=O)O)cnc1-c1cc(C23CC4CC(CC(C4)C2)C3)c(O)cc1C
0.9	COCCOCOc1cc(C)c(-c2ncc(-c3ccc(C(=O)O)cc3)s2)cc1C12CC3CC(CC(C3)C1)C2
1.4	Cc1cc(O)c(C23CC4CC(CC(C4)C2)C3)cc1-c1ccc(CC(=O)O)cc1Cl
1.1	Cc1cc(O)c(C23CC4CC(CC(C4)C2)C3)cc1-c1ccc(/C=C/C(=O)O)cc1Cl
1.1	COCCOCOc1cc(C)c(-c2ccc3cc(C(=O)O)ccc3c2Cl)cc1C12CC3CC(CC(C3)C1)C2
1	CC(=O)NCCCOc1cc(/C=C/C(=O)O)ccc1-c1cc(C23CC4CC(CC(C4)C2)C3)c(O)cc1C
1.4	Cc1cc(O)c(C23CC4CC(CC(C4)C2)C3)cc1-c1ncc(-c2ccc(C(=O)O)cc2)s1
1.1	COc1nc(/C=C/C(=O)O)cnc1-c1ccc(O)c(C23CC4CC(CC(C4)C2)C3)c1
1.1	Cc1cc(O)c(C23CC4CC(CC(C4)C2)C3)cc1-c1ccc2cc(C(=O)O)ccc2c1Cl
